Experimental findings from PubChem BioAssay (NCI) are described below.

SMILES strings stand for the structures. The entries are a selection whose mix differs from that of the whole data set.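 Cell lines were cultured in 96-well plates, exposed to a single compound concentration, and assessed for percent growth 48 hours later.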 Calls of active or inactive are those of the source. How the source made its calls: active means growth percent below 10; inactive means the rest.

Test systems include NCI-H23 lung; NCI-H226 lung; NCI-H322M lung; HOP-62 NSCLC; NCI-H460 lung; HOP-92 NSCLC; NCI-H522 lung; A549/ATCC NSCLC; 786-0 renal; COLO 205 colon.
Holding throughout (assay): NCI-60 one-dose screen, 48 h (100 = growth as untreated, 0 = no growth, -100 = all killed)
Common to all, as to conditions: 10 µM unless noted

As for `CC1(CCC2(C)N=C(NN=C(CCl)CCl)SP2(=O)Nc2ncccn2)N=C(NN=C(CCl)CCl)SP1(=O)Nc1ncccn1` (stereo not drawn), the growth was inactive: 96.7% [100 µM] in the assay on NCI-H23 lung; inactive: 89.5% [100 µM] in the assay with NCI-H226 lung; inactive: 98.9% [100 µM] in the assay on NCI-H322M lung; inactive: 97.2% [100 µM] in the assay with HOP-62 NSCLC; inactive: 105% [100 µM] with NCI-H460 lung; inactive: 90.9% [100 µM] with HOP-92 NSCLC. For the same molecule, the growth in the assay with NCI-H522 lung was inactive: 90.6% [100 µM]; with A549/ATCC NSCLC, inactive: 99.5% [100 µM]; in the assay on 786-0 renal it was inactive: 98% [100 µM]; in the assay on COLO 205 colon, inactive: 112% [100 µM].
In the case of `O=[N+]([O-])c1ccc(Oc2cccc(Oc3ccc([N+](=O)[O-])cc3[N+](=O)[O-])c2)c([N+](=O)[O-])c1`, the growth in the assay with NCI-H23 lung was inactive: 66.8%; in the assay with NCI-H226 lung, inactive: 68.8%; in the assay with NCI-H322M lung, inactive: 98%; in the assay on HOP-62 NSCLC, inactive: 99.5%; in the assay with NCI-H460 lung it was inactive: 106%; in the assay with HOP-92 NSCLC it was inactive: 66.9%. Besides, the growth with NCI-H522 lung was inactive: 21.5%; in the assay with A549/ATCC NSCLC it was inactive: 95.5%; in the assay on 786-0 renal, inactive: 64.9%; with COLO 205 colon it was inactive: 105%.
`CCN(CC)C(=O)Oc1ccc(/C=N/NC(N)=S)nc1`: the growth with NCI-H23 lung was inactive: 90.9%; in the assay on NCI-H226 lung, inactive: 86.6%; with NCI-H322M lung, inactive: 59.1%; in the assay with HOP-62 NSCLC, inactive: 75.8%; in the assay on NCI-H460 lung it was inactive: 70.4%; in the assay on HOP-92 NSCLC, inactive: 96.4%. For the same molecule, the growth in the assay with NCI-H522 lung was inactive: 83%; in the assay on A549/ATCC NSCLC, inactive: 67.1%; with 786-0 renal, inactive: 88.1%; with COLO 205 colon, inactive: 103%.
Turning to `CCCNC(=O)c1ccc(N(CCCl)CCCl)cc1`, the growth in the assay on NCI-H23 lung was inactive: 95%; with NCI-H226 lung it was inactive: 105%; with NCI-H322M lung, inactive: 118%; in the assay with HOP-62 NSCLC, inactive: 89.5%; in the assay with NCI-H460 lung it was inactive: 100%; with HOP-92 NSCLC it was inactive: 77.2%. For the same molecule, the growth in the assay with NCI-H522 lung is inactive: 91.2%; in the assay with A549/ATCC NSCLC it was inactive: 93.4%; with 786-0 renal, inactive: 107%; in the assay on COLO 205 colon, inactive: 108%.
On to `CC1CCNP(=O)(N(CCCl)CCCl)O1` (stereo not drawn), for which the growth in the assay on NCI-H23 lung is inactive: 94%; with NCI-H226 lung it was inactive: 112%; in the assay with NCI-H322M lung, inactive: 122%; with HOP-62 NSCLC, inactive: 106%; in the assay with NCI-H460 lung it was inactive: 110%; in the assay on HOP-92 NSCLC, inactive: 91%. Besides, the growth in the assay with NCI-H522 lung is inactive: 97.4%; with A549/ATCC NSCLC, inactive: 104%; in the assay with 786-0 renal it was inactive: 99.9%; in the assay on COLO 205 colon, inactive: 104%.
Regarding `O=C(O)CCc1ccc(N(CCCl)CCCl)cc1`, the growth was inactive: 96.4% in the assay with NCI-H23 lung; inactive: 97.4% in the assay with NCI-H226 lung; inactive: 103% in the assay on NCI-H322M lung; inactive: 96.5% in the assay with HOP-62 NSCLC; inactive: 88.7% with NCI-H460 lung; inactive: 90% in the assay on HOP-92 NSCLC. The growth in the assay on NCI-H522 lung was inactive: 84.8%; with A549/ATCC NSCLC it was inactive: 97.3%; in the assay with 786-0 renal, inactive: 107%; in the assay with COLO 205 colon, inactive: 106%.
`CCP(Cl)(Cl)(Cl)CC`: the growth with NCI-H23 lung is inactive: 94.8%; with NCI-H226 lung, inactive: 101%; in the assay on NCI-H322M lung it was inactive: 100%; in the assay with HOP-62 NSCLC, inactive: 101%; in the assay with NCI-H460 lung, inactive: 103%; in the assay with HOP-92 NSCLC it was inactive: 43%. Moreover, the growth with NCI-H522 lung is inactive: 74.2%; in the assay with A549/ATCC NSCLC, inactive: 99.9%; in the assay on 786-0 renal it was inactive: 96.2%; in the assay on COLO 205 colon it was inactive: 112%.
As for `O=[As](O)(c1cccc(O)c1)c1cccc(O)c1`, the growth in the assay on NCI-H23 lung is inactive: 92.8%; in the assay with NCI-H226 lung it was inactive: 95.2%; in the assay on NCI-H322M lung, inactive: 120%; in the assay on HOP-62 NSCLC, inactive: 91.2%; in the assay on NCI-H460 lung, inactive: 105%; in the assay on HOP-92 NSCLC it was inactive: 100%. Moreover, the growth in the assay with NCI-H522 lung is inactive: 92%; with A549/ATCC NSCLC, inactive: 96.7%; in the assay with 786-0 renal it was inactive: 92.6%; with COLO 205 colon, inactive: 121%.
With `CN(CCCl)/N=N/c1nc2c([nH]1)c(=O)n(C)c(=O)n2C`, the growth in the assay with NCI-H23 lung was inactive: 94.9%; in the assay with NCI-H226 lung it was inactive: 106%; in the assay with NCI-H322M lung, inactive: 96.7%; with HOP-62 NSCLC, inactive: 88.5%; with NCI-H460 lung, inactive: 111%; in the assay on HOP-92 NSCLC, inactive: 106%. Besides, the growth with NCI-H522 lung is inactive: 77.2%; in the assay on A549/ATCC NSCLC, inactive: 98.5%; in the assay on 786-0 renal, inactive: 85.9%; with COLO 205 colon, inactive: 105%.
As to `O=C1NC(c2ccccc2)(c2ccccc2)C(=O)N1P(=O)(Oc1ccccc1)Oc1ccccc1`, the growth with NCI-H23 lung is inactive: 102%; in the assay on NCI-H226 lung, inactive: 99.7%; in the assay on NCI-H322M lung, inactive: 104%; in the assay on HOP-62 NSCLC, inactive: 90.3%; with NCI-H460 lung, inactive: 106%; in the assay on HOP-92 NSCLC it was inactive: 82.6%. Besides, the growth with NCI-H522 lung was inactive: 98.8%; in the assay with A549/ATCC NSCLC, inactive: 102%; in the assay on 786-0 renal, inactive: 102%; in the assay with COLO 205 colon it was inactive: 106%.
As to `O=c1ccc(Oc2ccc([N+](=O)[O-])cc2[N+](=O)[O-])nn1-c1ccc([N+](=O)[O-])cc1[N+](=O)[O-]`, the growth is inactive: 77.9% in the assay with NCI-H23 lung; inactive: 86% in the assay on NCI-H226 lung; inactive: 99.1% in the assay with NCI-H322M lung; inactive: 39.4% in the assay with HOP-62 NSCLC; inactive: 75% with NCI-H460 lung; inactive: 27.8% in the assay on HOP-92 NSCLC. In addition, the growth is active: -70.5% in the assay on NCI-H522 lung, inactive: 75.1% in the assay with A549/ATCC NSCLC, active: -87.6% with 786-0 renal and inactive: 51.3% with COLO 205 colon.
For `O=C(c1ccccc1)C(NCCCl)c1ccccc1` (stereo not drawn), the growth with NCI-H23 lung is inactive: 96.8%; in the assay with NCI-H226 lung, inactive: 103%; in the assay on NCI-H322M lung it was inactive: 88.3%; in the assay on HOP-62 NSCLC, inactive: 111%; with NCI-H460 lung, inactive: 104%; with HOP-92 NSCLC, inactive: 89.9%. Moreover, the growth with NCI-H522 lung was inactive: 66.1%; with A549/ATCC NSCLC it was inactive: 97.7%; in the assay with 786-0 renal it was inactive: 93.2%.
Regarding `CCN(CC)CCOC(=O)C(O)(c1cccc(OC)c1OC)c1cccc(OC)c1OC`, the growth in the assay on NCI-H23 lung is inactive: 103%; in the assay with NCI-H226 lung, inactive: 87.9%; with NCI-H322M lung it was inactive: 101%; with HOP-62 NSCLC, inactive: 88%; in the assay with NCI-H460 lung it was inactive: 98.9%; with HOP-92 NSCLC, inactive: 84.1%. Also, the growth with NCI-H522 lung is inactive: 73.4%; in the assay with A549/ATCC NSCLC, inactive: 90.1%; with 786-0 renal, inactive: 101%.
Consider `COc1ccc(N)c([N+](=O)[O-])c1[N+](=O)[O-]`, for which the growth in the assay on NCI-H23 lung is inactive: 98.6%; with NCI-H226 lung, inactive: 108%; in the assay on NCI-H322M lung it was inactive: 114%; in the assay on HOP-62 NSCLC, inactive: 104%; in the assay on NCI-H460 lung it was inactive: 103%; with HOP-92 NSCLC it was inactive: 33.3%. In addition, the growth in the assay with NCI-H522 lung is inactive: 102%; in the assay on A549/ATCC NSCLC it was inactive: 100%; with 786-0 renal, inactive: 105%; in the assay with COLO 205 colon, inactive: 122%.
